Source: publication PMC6505380, “An Extensively Humanized Mouse Model to Predict Pathways of Drug Disposition and Drug/Drug Interactions, and to Facilitate Design of Clinical Trials” (Drug Metabolism and Disposition, 2019)

Columns and labels:
[1] = Dabrafenib pharmacokinetics in 8HUM mice: effect of SJW and hyperforin; conditions: female 8HUM mice; pretreatment with SJW or hyperforin vs vehicle
Total hepatic P450 = conditions: mouse, in vivo

hyperforin
Decrease of the AUC of dabrafenib [1]: 65%
Total hepatic P450 (Total hepatic P450): 276 ± 28 pmol/mg protein
